The source of these data is patent US6649595B2, “Regulation of biological events using novel compounds” (ARIAD Gene Therapeutics, Inc., priority 1995, dated 2003).

This experiment concerns HT1080 cells transfected with ZFHD1-3FKBP, 1FRB-p65 (wild-type or mutant FRB) and SEAP reporter gene. Nature of the experiment: Rapalog-dependent SEAP transcriptional activation in transiently transfected cells. Particulars: engineered HT1080 cells.

As to 13F, 28-F-rapamycin [Compound 108], the “stimulation of SEAP expression” value is “stimulate expression”.
